The list shows a part of the results, in another mix than the full data. Results filed as inconclusive are left out. Activity calls are given as the source filed them. Cut-off read from the data, not from the text of the source: active = max dye-equivalent concentration above about 10 nM; inconclusive = mostly about 1.1 nM to 9.6 nM; inactive = weaker than that.
test: qHTS Assay for Spectroscopic Profiling in 4-MU Spectral Region; details: compound autofluorescence, 340/450 nm, 4-MU equivalents; stronger effect = higher value
Description: NIH Molecular Libraries Screening Centers Network [MLSCN] NIH Chemical Genomics Center [NCGC] […] Occasionally, the artifactual effect may originate from the compounds own spectral or other biophysical properties which generally tend to track its assay concentration. Pre-screening/profiling the library with respect to the compounds spectral properties should help one exclude false positives early on. While the most informative fluorescent profiling data set is obtained by performing a full excitation and emission scan of each well by using a monochromator-based plate reader, such an approach is practical only on a very limited scale as scanning each well requires long time. An alternative approach, applied here, is to perform plate reader scans using selected excitation and emission wavelength pairs to generate a multidimensional relational database that correlates compound concentration and the respective relative fluorescence intensity at a given wavelength set. A standard curve of 4-methylumbelliferone (4-MU) present on each plate as six-point concentration series, was used to compute a normalized fluorescence response, termed dye-equivalent concentration, for each compound at each concentration. […]

SMILES | max dye-equivalent concentration
COP1(=S)c2c(C)nn(CCC#N)c2N=C(c2ccc(F)cc2)N1C (stereo unspecified) | active: 110 nM

— PubChem BioAssay AID589 (National Center for Advancing Translational Sciences (NCATS), 2007)
